Protein sequences, listed by entry. Tags and fused reporters are not part of them.
UniProt P08183, whole entry: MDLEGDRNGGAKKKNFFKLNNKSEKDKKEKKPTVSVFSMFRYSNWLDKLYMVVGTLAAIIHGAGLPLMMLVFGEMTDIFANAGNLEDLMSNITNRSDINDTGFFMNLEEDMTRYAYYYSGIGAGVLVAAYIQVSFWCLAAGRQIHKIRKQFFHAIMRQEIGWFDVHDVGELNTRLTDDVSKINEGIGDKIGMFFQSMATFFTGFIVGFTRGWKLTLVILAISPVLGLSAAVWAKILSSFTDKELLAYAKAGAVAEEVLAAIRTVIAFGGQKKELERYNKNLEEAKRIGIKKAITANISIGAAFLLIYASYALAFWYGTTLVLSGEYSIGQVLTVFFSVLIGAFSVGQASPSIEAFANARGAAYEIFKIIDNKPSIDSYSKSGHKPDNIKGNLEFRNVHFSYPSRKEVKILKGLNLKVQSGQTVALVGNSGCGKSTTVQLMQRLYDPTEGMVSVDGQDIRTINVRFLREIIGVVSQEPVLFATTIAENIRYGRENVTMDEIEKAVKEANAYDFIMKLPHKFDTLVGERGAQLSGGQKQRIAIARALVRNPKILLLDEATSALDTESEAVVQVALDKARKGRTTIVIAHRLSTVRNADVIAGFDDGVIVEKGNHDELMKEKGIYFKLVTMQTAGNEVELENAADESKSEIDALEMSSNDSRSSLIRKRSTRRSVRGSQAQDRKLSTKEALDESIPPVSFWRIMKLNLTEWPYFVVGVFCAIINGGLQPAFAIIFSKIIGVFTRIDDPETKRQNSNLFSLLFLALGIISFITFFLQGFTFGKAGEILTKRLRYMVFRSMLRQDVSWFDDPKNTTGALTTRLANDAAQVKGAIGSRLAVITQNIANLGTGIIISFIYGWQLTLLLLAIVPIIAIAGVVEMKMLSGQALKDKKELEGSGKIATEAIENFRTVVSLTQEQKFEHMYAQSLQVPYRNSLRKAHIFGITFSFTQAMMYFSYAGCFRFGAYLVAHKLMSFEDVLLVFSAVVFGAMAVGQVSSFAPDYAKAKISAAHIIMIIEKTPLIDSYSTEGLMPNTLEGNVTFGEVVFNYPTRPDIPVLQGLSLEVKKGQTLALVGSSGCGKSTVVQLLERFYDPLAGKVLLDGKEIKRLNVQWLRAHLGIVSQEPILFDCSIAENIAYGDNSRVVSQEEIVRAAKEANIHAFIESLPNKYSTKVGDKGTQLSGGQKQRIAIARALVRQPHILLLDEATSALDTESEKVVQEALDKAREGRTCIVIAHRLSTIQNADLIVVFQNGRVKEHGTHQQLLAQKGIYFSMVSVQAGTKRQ

According to patent US9901582B2, “Polymorphisms in ABCB1 associated with a lack of clinical response to medicaments” (Max-Planck-Gesellschaft zur Förderung der Wisenschaften e. …, priority 2007, dated 2018):

Columns and labels:
[1] = target: ABCB1 (Homo sapiens, UniProt P08183); conditions: cited from earlier work
[2] = tested on: P-gp; assay: Organ and plasma concentrations of antidepressants in abcb1ab(−/−) knockout mice versus FVB/N wild-type controls (blood-organ barrier function); conditions: 11 days s.c., FIG. 1
[3] = tested on: P-gp; conditions: male, abcb1ab(−/−) on FVB/N background versus FVB/N wild-type, mouse, sc, 11 days

With `Cc1cc2c(s1)Nc1ccccc1N=C2N1CCN(C)CC1` [Olanzapine] as the compound, how does the Substrate [1] read?
The Substrate was “(x)”.

For Mitomycin C, which Inhibitor [1] is on record?
The Inhibitor was “(x)”.

For `CN(C)CCCC1(c2ccc(F)cc2)OCc2cc(C#N)ccc21` (centres unmarked) [Citalopram], which “differences in testes/plasma ratio between knockout and control” value [2] is on record?
Its value is “smaller but still significant differences”.

And the “ratio (−/−)/(+/+), cerebrum” value ([3]; in vivo)?
The value was 3.0.

And the “ratio (−/−)/(+/+), kidney” value ([3]; in vivo)?
Its value is 0.8.

And the “ratio (−/−)/(+/+), liver” value ([3]; in vivo)?
Its value is 1.0.

What about the “ratio (−/−)/(+/+), lung” value ([3]; in vivo) of the same compound?
Its value is 1.0.

What about the “ratio (−/−)/(+/+), plasma” value ([3]; in vivo) of the same compound?
The value was 0.8.

What about the “ratio (−/−)/(+/+), spleen” value ([3]; in vivo) of the same compound?
The value was 1.0.

What about the “ratio (−/−)/(+/+), testes” value ([3]; in vivo) of the same compound?
Its value is 1.6.

What about the “penetration into the brain (organ/plasma concentration ratio), times higher in animals lacking P-gp than in control animals” value ([3]; not told) of the same compound?
Its value is 3.7 times.
